In ChEMBL document CHEMBL1250519, “Design, synthesis, and biological evaluation of halogenated N-(2-(4-oxo-1-phenyl-1,3,8-triazaspiro[4.5]decan-8-yl)ethyl)benzamides: discovery of an isoform-selective small molecule phospholipase D2 inhibitor” (J Med Chem, 2010):

Tests used:
Settings in all cases: Sprague-Dawley, rat, iv, 1 mg/kg
in vivo [1] = experiment: in vivo
in vivo [2] = experiment: in vivo; remark: listed apart in the source
in vivo [3] = experiment: in vivo; remark: listed apart in the source

C[C@@H](CN1CCC(n2c(=O)[nH]c3cc(Br)ccc32)CC1)NC(=O)[C@H]1C[C@@H]1c1ccccc1
clearance (in vivo [1]): 60.7 mL/min/kg | half-life (in vivo [2]): 46.8 min | Vd (in vivo [3]): 4.7 L/kg
